Tested on: deoxymyoglobin
Assay: Myoglobin assay, CO release under 365 nm UV light
Settings: 365 nm lamp; 15 μM complex, 60 μM myoglobin, pH 7.4
Experimental: The myoglobin solution, which was prepared in PBS (pH 7.4, 0.1 M), was reduced to deoxymyoglobin using sodium dithionite (100 mM). The solutions of each complex ([…]) in DMSO were incubated with deoxymyoglobin solution ([…]), and the final solution was exposed to 365 nm UV light from a distance of 2 cm. Deoxymyoglobin has a band at 557 nm, while carbonmonoxy-myoglobin has two identical bands at 540 and 577 nm, and the changes at these wavelengths make the process observable and determinable. Thus, the CO-releasing properties of the molecules were calculated using the Lambert–Beer Law.
The commonly used method for determining the CO-releasing of a molecule is UV–visible spectroscopy. There are various ways for releasing CO from a molecule such as substitution, decomposition, and photoactivation. , Manganese carbonyl complexes are known as photoactivatable CO-releasing molecules (photoCORM). A photoCORM must be stable in the dark while it releases CO upon exposure to light of a certain wavelength. […] The basic principle of the myoglobin assay is based on the formation of carbon monoxymyoglobin with the interaction of deoxymyoglobin with CORMs by the spectrophotometric method. […] The CO-releasing properties of a molecule could be evaluated from two perspectives: the first is how fast the molecule’s release is, and the second is how high the rate of the releasing is.

Substance	Half-life t 1/2 (50% of total CO release) [min]
[Mn(CO)3(bpy)(1-(2-vinyloxyethyl)benzimidazole)]PF6 [2e]	7.49
[Mn(CO)3(bpy)(1-(2-metallyl)benzimidazole)]PF6 [2c]	3.14
